In paper PMC7539012, “Hyperphosphorylated tau aggregation and cytotoxicity modulators screen identified prescription drugs linked to Alzheimer's disease and cognitive functions” (Scientific Reports, 2020):

Assays:
SH-SY5Y cells [1] = test system: SH-SY5Y cells
SH-SY5Y cells [2] = test system: SH-SY5Y cells; remark: listed apart in the source
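Throughout, for ThS net change: 30 µM compound with 6 µM p-tau over 16 h.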

Row | Molecule | effect on LD50 of p-tau (SH-SY5Y cells [1]) | cytotoxicity of p-tau C/A and C/S mutants (SH-SY5Y cells [2]) | ThS net change (1N4R p-tau)
1 | CN1CCc2cccc3c2[C@H]1Cc1ccc(O)c(O)c1-3 [Apomorphine, R-(−)-apomorphine hydrochloride] | caused the LD50 values of p-tau to increase progressively | reduction of p-tau C/A and C/S cytotoxicity | –
2 | Thimerosal | – | – | 377
3 | CNCC[C@@H](Oc1cccc2ccccc12)c1cccs1.Cl [(R)-Duloxetine hydrochloride] | – | – | 497
4 | C[C@@H]1C[C@H]2[C@@H]3C[C@H](F)C4=CC(=O)C=C[C@]4(C)[C@@]3(F)[C@@H](O)C[C@]2(C)[C@@]1(O)C(=O)CO [Flumethasone] | – | – | 377
5 | CCN(Cc1ccncc1)C(=O)C(CO)c1ccccc1 (stereo not drawn) [Tropicamide] | – | – | 345

Where a name gives a salt, the structure may show the parent alone.
